Data from US10947188B2, “Small molecule ferroptosis inducers” (THE TRUSTEES OF COLUMBIA UNIVERSITY IN THE CITY OF NEW YORK, priority 2016, dated 2021).

Experiments:
BJeLR = assay: Modulatory profiling: Alamar Blue viability, lethal compound cotreated with death modulator (EC50, AUC); format: cell-based, human; conditions: BJeLR cells, modulatory profile value (AUC)
HT-1080 = assay: as above; format: cell-based; parameters: AUC, modulator HT.ALLN / AUC HT.ATA / AUC HT.ActD / AUC HT.BHA / AUC HT.BHT / AUC HT.BocD / AUC HT.CHX / AUC HT.Co2+ / AUC HT.CspA / AUC HT.DPQ / AUC HT.EGTA / AUC HT.Gd3+ / AUC HT.LNAME / AUC HT.Lmim / AUC HT.NAD+ / AUC HT.Nec-1 / AUC HT.Pepstatin / AUC HT.SP600125 / AUC HT.TLCK / AUC HT.U0126: unit not given beside the values; as to AUC HT.BHA: reference of the scale not given here; as to AUC HT.EGTA: reference of the scale not given here

SMILES: O=[N+]([O-])c1ccc(O)c([N+](=O)[O-])c1
- AUC, modulator BJ.Lmin/NAD+ (BJeLR): 0.07621
- AUC HT.ATA (HT-1080; HT-1080, modulator ATA): −0.03893
- AUC HT.ActD (HT-1080; HT-1080, modulator ActD): 0.1186
- AUC HT.BHA (HT-1080; HT-1080, modulator BHA): −0.1811
- AUC HT.BHT (HT-1080; HT-1080, modulator BHT): −0.1843
- AUC HT.BocD (HT-1080; HT-1080, modulator BocD): 0.05041
- AUC HT.CHX (HT-1080; HT-1080, modulator CHX): 0.2098
- AUC HT.Co2+ (HT-1080; HT-1080, modulator Co2+): 0.04336
- AUC HT.CspA (HT-1080; HT-1080, modulator CspA): −0.173
- AUC HT.DPQ (HT-1080; HT-1080, modulator DPQ): 0.08157
- AUC HT.EGTA (HT-1080; HT-1080, modulator EGTA): −0.096
- AUC HT.Gd3+ (HT-1080; HT-1080, modulator Gd3+): −0.02829
- AUC HT.LNAME (HT-1080; HT-1080, modulator LNAME): −0.008859
- AUC HT.Lmim (HT-1080; HT-1080, modulator Lmim): 0.02524
- AUC HT.NAD+ (HT-1080; HT-1080, modulator NAD+): 0.1164
- AUC HT.NMMA (HT-1080; HT-1080, modulator NMMA): 0.01661
- AUC HT.Nec-1 (HT-1080; HT-1080, modulator Nec-1): 0.03763
- AUC HT.Pepstatin (HT-1080; HT-1080, modulator Pepstatin): 0.01716
- AUC HT.SP600125 (HT-1080; HT-1080, modulator SP600125): −0.1203
- AUC HT.TLCK (HT-1080; HT-1080, modulator TLCK): 0.03577
- AUC HT.U0126 (HT-1080; HT-1080, modulator U0126): −0.02156
- HT.atoc (AUC) (HT-1080; HT-1080, modulator atoc): 0.09944
- HT.bCarotene (AUC) (HT-1080; HT-1080, modulator bCarotene): −0.009997
- HT.deferox (AUC) (HT-1080; HT-1080, modulator deferox): 0.1114
- HT.digoxin (AUC) (HT-1080; HT-1080, modulator digoxin): −0.07133
- HT.trolox (AUC) (HT-1080; HT-1080, modulator trolox): 0.03607
- HT.zVAD (AUC) (HT-1080; HT-1080, modulator zVAD): 0.04233
- AUC, modulator HT.ALLN (HT-1080; HT-1080 cells, lethal compound cotreated with modulator ALLN, modulatory profile value (AUC)): 0.1147
